Earlier results in patent US20030003131A1, “Method for manufacture of free-flowing powder containing water-dispersible sterols” (priority 2001, published 2003).

Details: orally administered, chronic administration

## neomycin
  toxicity: toxic
